This note sets out measurements from patent US6476254B1, “Alkoxylated fatty alcohol dicarboxylic acid esters” (Croda Inc., priority 1998, dated 2002).

The series can be described thus: Solubilization of benzophenone 3 by the ester. The class given is physicochemical. The settings on record: forming a clear solution even after 48 hours. The protocol: The compound Bis (PPG2, PEG10 Myristyl) adipate has a viscosity of 18,000 cps, a spread factor of 2.9 and can solubilize at least 20% by weight of benzophenone 3 forming a clear solution even after 48 hours.

Bis (PPG2, PEG10 Myristyl) adipate: the “can solubilize benzophenone 3” value is “at least 20 % by weight”.
